RXFP1 antag = blocks the human relaxin receptor RXFP1 | AID 1259400 | HEK293-RXFP1, relaxin-stimulated cAMP HTRF, 30 min; stronger effect = lower value | 350,000 compounds, 0.59% hits | activity change, negative = inhibition, % at 57.5 µM;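 active means activity change of -60% or lower, but not beyond a set lower limit; inconclusive means change between -60% and -40%, or beyond the set limit; inactive means change above -40%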; further: on the % scale 0 is the no-effect control and ±100 the full control effect
PINK1 expr mod = modulators of PINK1 expression; 410,000 compounds, 0.2% hits; PINK1 immunofluorescence, high-content cytometry, 24 h; Potency, µM (titrated, usually from 76.6 µM), without a hit: at the highest dose activation (PINK1 increase), most hits filed as activators; AID 624263; active means well fitted activation curve with a large enough effect; inconclusive means small, poorly fitted or top-dose-only effect; cell line not stated here; further: potency means the concentration at half of the fitted maximal effect; % of control where 0% means no effect; nearly all actives have a fitted effect of over 65% in size
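Readout is PINK1 immunofluorescence, quantified alongside mitochondrial, cell and nuclear markers by laser-scanning microplate cytometry. Cells from a stable line were exposed to compound titrations (5 concentrations) for 24 hours, with CCCP controls.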
IL-2 act = activates IL-2 in a cell-based reporter assay | activation, % (series mostly up to about 46 µM) | IL-2 activation reporter assay, cell-based qHTS; stimulated with anti-CD3/CD4/CD28 beads; in transgenic mouse T cells | 360,000 compounds, 0.065% hits; in the data active means activation above about 50%; inconclusive means mostly about 30% to 49%; further: 0% is about no effect
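Unstimulated transgenic mouse T cells preincubated 60 min with compound, then stimulated with anti-CD3/anti-CD4-coated beads plus anti-CD28 for 18 h at 37 degrees C. IL-2 response read as EGFP and DsRed fluorescence by plate cytometry.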
RXFP1 ag = activates the human relaxin receptor RXFP1 | Q9HBX9 | HEK293T-RXFP1 cAMP TR-FRET, 30 min; response scale: percent of porcine relaxin response, buffer zero | Potency, µM (doses to about 57.5 µM), without a hit: top-dose activation, actives largely listed as activators | 370,000 compounds, 0.3% hits; further: potency means the concentration at half of the fitted maximal effect; on the % scale 0 is the no-effect control and ±100 the full control effect; nearly all actives have a fitted effect of over 60% in size
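HEK293 cells stably expressing RXFP1, treated 30 min at 37C with compounds plus PDE4 inhibitor Ro 20174; cAMP measured by HTRF TR-FRET. Normalized to buffer and 29 nM porcine relaxin; EC50 by Hill fit.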
TCR act = T cell receptor activation; Potency, µM (titrated, usually from 9.22 µM), without a hit: at the top dose activation of IL-2 secretion, most hits filed as activators; 330,000 tested, under 10 active; AID 504894; primary human leukocytes, anti-CD3, IL-2 HTRF, 48 h; further: % of control where 0% means no effect
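48 hr co-incubation of compounds, a-CD3 beads and primary human leukocytes; IL-2 quantified homogeneously by HTRF with anti-IL-2 K and d2 conjugates.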
miR-21 reporter = raises the signal of a miR-21 reporter | HeLa miR-21 FLuc reporter, luciferase, 48 h | Potency, µM (highest dose often 38.3 µM), inactives show at the highest dose reporter change, positive = more light | 340,000 tested, under 10 active | AID 2288; active = well fitted rising curve with a large enough effect; inconclusive = small, poorly fitted or top-dose-only effect; inactive = no such curve, though single readings can be large or run the other way;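 note: % of control where 0% means no effect; miR-21 action dims this reporter so a rising signal means less miR-21 action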
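Compounds were titrated across several concentrations (up to approximately 40 uM) and incubated 48 hours with HeLa miR-21-FLuc reporter cells (miR-21 target sequence downstream of FLuc, endogenous miR-21). Readout was firefly luciferase luminescence after lytic detection reagent.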
Starred values were filed as active, the others as inactive; ? = inconclusive; · = no result given; [ ] = dose if it differs, or a comment. This is a sample that favours compounds with a hit; in the whole collection about 0.78% have one here. Unless noted, the call rests on the fitted dose curve; in most records, active means well fitted curve in the direction sought with a large enough effect; inconclusive means small, poorly fitted or top-dose-only effect, or another doubt; inactive means no such curve, though single readings can be large; an effect the other way counts as inactive or inconclusive.

SMILES	RXFP1 antag	PINK1 expr mod	IL-2 act	RXFP1 ag	TCR act	miR-21 reporter
COc1ccc(-n2nc(C(=O)NCC(=O)NCCCN3CCOCC3)c3ccccc3c2=O)cc1Cl	16.7	1.3%	0.9	?	9.3%	0.1%
CC(C)Cc1nc2cc(NS(=O)(=O)N(C)C)cc(C(=O)N3CCc4sccc4C3)c2n1C	·	0.2%	·	·	·	·
C#CCN(Cc1nc(N2CCOCC2)c2ccc(Cl)cc2n1)Cc1ccco1	·	-0.2%	·	·	·	·
COc1ccc(/C=C/C(=O)c2c(O)cc(C)oc2=O)c(OC)c1	0.5	-1.0%	172.1*	1.2%	-1.0%	-35.7%
CCOC(=O)c1sc(NC(=O)Cc2ccc(C)cc2)nc1C	0.3	1.4%	1.6	3.1%	0.2%	-10.8%
CCOC(=O)c1sc(NC(=O)CCC(=O)O)nc1C	-85.2*	-0.4%	0.0	-0.3%	-0.2%	1.8%
COc1cccc(-c2ccnc(-n3ncc(C(=O)NCC4(N5CCCCC5)CCCC4)c3C)n2)c1	·	0.7%	·	·	·	·
CCCOc1ccc(C(=O)NC(=S)N2CCN(c3cc4c(cc3F)c(=O)c(C(=O)O)cn4CC)CC2)cc1	-6.0	35.5µM*	-2.4	3.7%	4.0%	-1.7%
CCn1cc(C(=O)O)c(=O)c2cc(F)c(N3CCN(C(=S)NC(=O)c4ccc(F)cc4)CC3)cc21	-4.8	-1.9%	-3.8	-0.3%	0.3%	-18.8%
CCC(=O)N1CCN(c2cc3c(cc2F)c(=O)c(C(=O)O)cn3CC)CC1	-11.4	0.9%	-1.4	·	5.0%	·
CCn1cc(C(=O)O)c(=O)c2cc(F)c(N3CCN(S(=O)(=O)c4ccc(NC(=O)OC)cc4)CC3)cc21	7.1	31.6µM*	0.7	1.3%	-22.6%[46.1 µM]	0.0%
CCCCCCOc1ccc(C2C(=O)N(C3CCCCC3)CC(=O)N2C2CCCCC2)cc1 (stereo not given)	-18.3	1.7%	·	-0.5%	·	1.5%
CCCCCCOc1ccc(C2C(=O)N(C3CCCCC3)CC(=O)N2CCC)cc1 (stereo not given)	-68.9*	0.5%	·	0.0%	·	15.8%
COc1ccc(Br)cc1CN(C)CC(O)COc1ccc(Br)cc1 (stereo not given)	-63.5*	2.3%	-0.4	0.4%	8.4%	-9.5%
CC(C(=O)NCC1CCCCC1)N(C)Cc1ccc(Cl)cc1 (stereo not given)	-77.8*	6.9%	-1.0	5.0%	-0.2%	2.5%

A different layout for part of the listing above.
Fields: RXFP1 antag	PINK1 expr mod	IL-2 act	RXFP1 ag	TCR act	miR-21 reporter
CCCOc1ccc(C(=O)NC(=S)N2CCN(c3cc4c(cc3F)c(=O)c(C(=O)O)cn4CC)CC2)cc1
  -6.0	35.5µM*	-2.4	3.7%	4.0%	-1.7%
CCn1cc(C(=O)O)c(=O)c2cc(F)c(N3CCN(C(=S)NC(=O)c4ccc(F)cc4)CC3)cc21
  -4.8	-1.9%	-3.8	-0.3%	0.3%	-18.8%

Additional results:
SMILES	RXFP1 antag	PINK1 expr mod	IL-2 act	RXFP1 ag	TCR act	miR-21 reporter
CCn1c(-c2cccc(OC)c2)nc2cc(NC(C)=O)cc(C(=O)N3CCC[C@H]3C(=O)OC)c21	·	1.3%	·	·	·	·
COCCN(C)C(=O)c1cnn(-c2nccc(-c3cc(C)sc3C)n2)c1C	·	-0.3%	·	·	·	·
CCCc1cc(C(=O)N2CCCC(Cc3cccc(Cl)c3)(C(=O)OCC)C2)n(C)n1 (stereo not given)	-63.7*	0.3%	-1.5	-7.0%	2.2%	-6.9%
O=C(c1cccnc1)C1CCCN(Cc2ccc3c(c2)CN(C(=O)c2ccc4[nH]ccc4c2)CCO3)C1 (stereo not given)	·	-0.3%	·	·	·	·
CS(=O)(=O)c1ccc(-c2cccc3c2OC(CNC(=O)c2ccnc(Cl)c2)C3)cc1 (stereo not given)	·	-1.0%	·	·	·	·
O=C(c1cnn(-c2nccc(-c3ccccc3F)n2)c1C1CC1)N1CCN(CCO)CC1	·	0.0%	·	·	·	·
O=C(Nc1ccccc1-c1nc2ccccc2[nH]1)c1ccc(N2C(=O)CCC2=O)cc1	-8.7	?	111.4*	-0.2%	-7.4%	-1.9%
COc1ccc2cc(CNC3CCS(=O)(=O)C3)c(-c3ccc(OC)c(OC)c3)nc2c1 (stereo not given)	·	0.9%	·	·	·	·
O=C(c1ccoc1)N1CCOc2ccc(CN3CCC(Oc4cccnc4)CC3)cc2C1	·	-0.5%	·	·	·	·
COc1ccc(N=Cc2c(O)n(-c3cccc(C)n3)c(=O)c3ccccc23)c(OC)c1	6.9	44.7µM*	?	4.2%	-24.7%	-0.9%
COC[C@@H](c1ccc(C(F)(F)F)cc1)N1CCN(C2(C)CCN(C(=O)c3c(C)ncnc3C)CC2)C[C@H]1C	-6.1	·	·	·	·	·
CCCCNc1c(-c2ccc(OC)c(SC(C)CC)c2)nc2cc(C)ccn12 (stereo not given)	·	14.7%	-4.6	·	-2.3%	·
CCCCNc1c(-c2ccc(Sc3ccc(OC)cc3)cc2)nc2cc(C)ccn12	·	28.2µM*	-1.9	·	-10.8%	·
COc1ccc(C(=O)NCc2nc(-c3ccccc3NC(=O)c3cc(C)oc3C)oc2C)cc1F	·	1.7%	·	·	·	·
O=C(c1cccn1-c1nnc(N2CCCC2)s1)N1CCN(c2ccccc2)CC1	1.5	-1.3%	·	4.5%	·	-2.9%
Cc1ccc(Cl)cc1N1CCN(C(=O)c2cccn2-c2nnc(N3CCCC3)s2)CC1	-82.7*	-0.2%	·	-3.7%	·	1.6%
CSc1nc(C(=O)NCc2nc(-c3cccc(NC(=O)c4ccccn4)c3)oc2C)cs1	·	0.3%	·	·	·	·
N#CC(C#N)=C1NC(N)=C(C#N)C(c2ccccc2)=C1C#N	·	·	·	28.2µM*	·	2.5%
N#CC1=C(c2ccccc2)/C(=C/c2ccccc2)OC1=O	·	-0.3%	1.0	1.0%	2.2%	6.9%
CC(C)C(C(=O)Nc1nccs1)c1ccc(Cl)cc1 (stereo not given)	-83.3*	4.3%	8.3	3.0%	1.2%	20.0%
CC(C)C(C(=O)Nc1ccncc1)c1ccc(Cl)cc1 (stereo not given)	-0.1	1.2%	-3.6	-0.7%	-3.5%	15.2%
CN(C)c1ccc(-c2nc3cc(N)ccc3o2)cc1	19.4	0.1%	1.0	28.2µM*	-10.1%	11.6%
CN(C)C(=O)[C@@H]1C[C@@H](Sc2nc3ccccc3[nH]2)CN1Cc1ccnc2ccccc12	·	-0.8%	·	·	·	·
CCCCC1=CC2=C(c3ccco3)C(=O)C(C)(OC(=O)c3ccc(OC)cc3)C(=O)C2=CN1CC(C)C (stereo not given)	·	4.4%	-2.7	15.8µM*	-35.6%	4.6%
CCOc1ccc(-c2nonc2NC(=O)c2oc3cc(Br)ccc3c2C)cc1	3.0	7.8%	·	-0.3%	·	5.8%
CCOc1ccc(-c2nonc2NC(=O)c2oc3cc(C)ccc3c2C)cc1	-65.9*	2.6%	·	-3.0%	·	28.2%
CCOc1ccc(OCCn2c(=S)[nH]c3ccccc32)cc1	-63.2*	3.8%	0.0	2.3%	4.5%	4.6%
S=c1[nH]c2ccccc2n1CCOc1ccccc1	-28.1	1.6%	1.0	-1.4%	5.1%	-21.7%
COc1cccc(Nc2nc(-c3ccccc3O)nc3ccccc23)c1	19.4	7.5%	64.1*	?	-4.3%	-6.1%
COc1ccc(Nc2nc(-c3ccccc3O)nc3ccccc23)cc1	3.6	23.9%	-5.0	-0.8%	1.7%	11.5%
COCc1c(C(=O)N2CCN(C3CCCC3)CC2)cnn1-c1ncc2c(n1)-c1ccccc1CCC2	·	0.0%	·	·	·	·

Among those listed so far, 4 contain an aryl thioether with sulfur outside any ring:
SMILES	RXFP1 antag	PINK1 expr mod	IL-2 act	RXFP1 ag	TCR act	miR-21 reporter
CCCCNc1c(-c2ccc(OC)c(SC(C)CC)c2)nc2cc(C)ccn12 (stereo not given)	·	14.7%	-4.6	·	-2.3%	·
CCCCNc1c(-c2ccc(Sc3ccc(OC)cc3)cc2)nc2cc(C)ccn12	·	28.2µM*	-1.9	·	-10.8%	·
CSc1nc(C(=O)NCc2nc(-c3cccc(NC(=O)c4ccccn4)c3)oc2C)cs1	·	0.3%	·	·	·	·
CN(C)C(=O)[C@@H]1C[C@@H](Sc2nc3ccccc3[nH]2)CN1Cc1ccnc2ccccc12	·	-0.8%	·	·	·	·

Compound activity as filed in PubChem.
